Measured values: BindingDB's records for PubMed 9454827 (Sibia Neurosciences, 1998)

The chains behind the UniProt entries cited, without tags or fusion partners.
UniProt P32297, whole entry: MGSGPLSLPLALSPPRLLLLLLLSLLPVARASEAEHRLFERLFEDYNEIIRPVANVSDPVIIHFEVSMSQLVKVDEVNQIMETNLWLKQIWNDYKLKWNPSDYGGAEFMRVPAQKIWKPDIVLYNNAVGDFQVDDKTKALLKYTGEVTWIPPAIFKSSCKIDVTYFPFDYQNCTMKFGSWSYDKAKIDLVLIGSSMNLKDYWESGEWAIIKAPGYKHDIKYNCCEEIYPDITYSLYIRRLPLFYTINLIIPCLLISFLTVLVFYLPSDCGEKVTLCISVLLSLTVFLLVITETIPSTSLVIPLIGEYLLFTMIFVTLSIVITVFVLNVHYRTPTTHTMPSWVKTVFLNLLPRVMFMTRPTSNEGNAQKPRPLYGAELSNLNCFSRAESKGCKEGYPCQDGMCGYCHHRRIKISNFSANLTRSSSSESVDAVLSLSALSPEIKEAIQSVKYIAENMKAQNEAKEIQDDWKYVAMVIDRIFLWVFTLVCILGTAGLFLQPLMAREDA

Biological target: Neuronal acetylcholine receptor subunit alpha-3 (Homo sapiens, UniProt P32297)

CNC1(C)C2CCC(C2)C1(C)C (stereo unspecified) [Methyl-(2,3,3-trimethyl-bicyclo[2.2.1]hept-2-yl)-amine(Mecamylamine)]
Ki: 1.4 µM
